Test results taken from patent publication US7838536B2, “Water-soluble zinc ionophores, zinc chelators, and/or zinc complexes and use for treating cancer” (priority 2006, dated 2010).

Conditions: mouse, in vivo

Substance: 2-thiol-5-((2-(2-methoxyethoxy)ethoxy)methyl)pyridine-N-oxide, Zn complex [5-PEG-[2]-ZnHPT]
- maximum tested without evidence of toxicity: ≥ 120 µmol/kg

Substance: 2-thiol-5-((2-methoxyethoxy)methyl)pyridine-N-oxide, Zn complex [5-PEG-[1]-ZnHPT]
- maximum tested without evidence of toxicity: ≥ 100 µmol/kg
